Key:
[1] = molecular target: T1, human TREM2 (hTREM2), expressed on cells (human, UniProt Q9NZC2 19-230); test: cell-based or functional assay
T1 sequence: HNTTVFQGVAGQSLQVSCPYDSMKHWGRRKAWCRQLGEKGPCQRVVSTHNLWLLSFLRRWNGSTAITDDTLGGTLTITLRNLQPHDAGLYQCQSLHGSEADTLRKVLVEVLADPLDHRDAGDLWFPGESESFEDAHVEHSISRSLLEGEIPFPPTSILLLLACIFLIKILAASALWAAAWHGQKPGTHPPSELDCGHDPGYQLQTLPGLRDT

Amino acid sequences for entries named in this document (tags omitted). Chains listed by the source or under a name are the forms on record and can include a tag or linker.
UniProt Q9NP99, other isoform, or with tags, fused parts or gaps limits assumed: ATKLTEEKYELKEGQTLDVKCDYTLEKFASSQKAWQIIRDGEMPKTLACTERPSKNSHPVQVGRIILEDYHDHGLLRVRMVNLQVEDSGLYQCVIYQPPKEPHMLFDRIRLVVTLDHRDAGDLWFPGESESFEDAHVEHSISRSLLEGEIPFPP

[2] = molecular target: T1, human TREM2 (hTREM2), expressed on cells; test: cell-based or functional assay; remark: listed apart in the source
[3] = molecular target: T2, hTREM1 IgSF-hTREM2 stalk-hFc (human, UniProt Q9NP99 21-134, limits assumed, biotinylated in the -bio form); test: ELISA
T2 construct: domain: IgSF; also called hTREM1 IgSF-T2 stalk-hFc-bio; hTREM1 IgSF-hTREM2 stalk-hFc-bio

[4] = molecular target: T1, human TREM2 (hTREM2), expressed on cells; test: cell-based or functional assay; remark: listed apart in the source

- Internalization (fold over control) [1]: 76 fold
- TREM2 activation (fold in RGA) [1]: 1.6 fold
- RGA in THP-B5 cells (fold increase over BG) [2]: 1.8 fold
- binding result [3]: no binding
- Activation THP1 B5-NFAT reporter fold activation [4]: 1.6 fold
B1: MOR042596 (full IgG) (antibody, V domains shown)
VH: QVQLVQSGAEVKKPGASVKVSCKASGYTFTGYHMSWVRQAPGQGLEWMGVINPVSGNTVYAQKFQGRVTMTRDTSISTAYMELSRLRSEDTAVYYCARIPSYTYAFDYWGQGTLVTVSS
VL: DIQMTQSPSSLSASVGDRVTITCRASQDISNYLAWYQQKPGKAPKLLIYRASSLQSGVPSRFSGSGSGTDFTLTISSLQPEDFATYYCQQHGHSPTTFGQGTKVEIKR
notes: Parental antibody of MOR044698; VH1B k1
